Reference: patent US4103011A, “Novel penicillin compounds and process for preparation thereof” (priority 1976, dated 1978)

Assay: in vivo
Conditions: mouse

Structure (SMILES): CCn1cc(C(=O)O)c(=O)c2cnc(N3CCNCC3)nc21 [Compound J, 5,8-Dihydro-8-ethyl-2-(1-piperazinyl)-5-oxopyrido[2,3-d]pyrimidine-6-carboxylic acid]
- selectivity ratio (iv): 17
- LD50 at 168 h (sc): 2240 mg/kg
- selectivity ratio (sc): 60
